# According to US20140275108A1, “NOVEL BENZENESULFONAMIDE COMPOUNDS, METHOD FOR SYNTHESIZING SAME, AND USE THEREOF IN MEDICINE AS WELL AS IN COSMETICS” (GALDERMA RESEARCH & DEVELOPMENT, priority 2013, published 2014):
# By UniProt entry, the sequences of proteins in these tests, tags left out. Residues count along the entry.
# UniProt P78536, 215-477: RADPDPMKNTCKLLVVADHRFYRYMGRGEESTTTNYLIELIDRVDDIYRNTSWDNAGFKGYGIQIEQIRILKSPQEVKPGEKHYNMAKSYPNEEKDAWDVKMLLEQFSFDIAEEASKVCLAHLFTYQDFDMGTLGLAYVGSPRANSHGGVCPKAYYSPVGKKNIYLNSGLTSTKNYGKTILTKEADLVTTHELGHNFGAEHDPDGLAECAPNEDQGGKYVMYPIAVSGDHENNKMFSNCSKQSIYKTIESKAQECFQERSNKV
# Biological target: TACE enzyme (Homo sapiens, UniProt P78536)
# Experiment: Enzymatic assay for TACE inhibition (fluorescent substrate)
# Assay type: biochemical
# Conditions: Table 1
structure (smiles),measurement,value
"CC#CCOc1ccc(S(=O)(=O)N(C)CC(C(=O)NO)N2CCN(S(C)(=O)=O)CC2)cc1 (stereo not shown) [Example 1, 3-[(4-but-2-ynyloxybenzenesulfonyl)methylamino]-N-hydroxy-2-(4-methanesulfonylpiperazin-1-yl)propionamide]",IC50,0.087 µM
